Measured values published in patent publication US10413632B2, “Cement products and methods of making and using the same” (Pioneer Surgical Technology, Inc., priority 2007, dated 2019).

Test: Solubility in PEI or 1,4-diaminobutane (DAB)
Text: The side chain amino groups of certain amino acid can serve as nucleophiles for the Michael addition to enones. Generally, amino acids are flaky or crystalline solids at room temperature, thus, they should be dissolved in a liquid to effectively participate in the set reaction.

guanidine carbonate [GUAC]
solubility (w/w) in PEI: 25.2%
